Source: paper PMC8967716, “Inhibition of calcium-triggered secretion by hydrocarbon-stapled peptides” (Nature, 2022)
Positions of bridges follow the written chain, without caps; N, C: chain ends. Non-standard residues stand in square brackets, D forms with d. Residues, ends and D or L forms follow the SMILES beside them. S5 = C=CCCC[C@](C)(N)C(=O)O

Experiment: Size exclusion chromatography of peptides
Assay type: physicochemical
Conditions: Superdex 75, buffer V (20 mM HEPES pH 7.4, 90 mM NaCl), 0.2 micrometer filtered
Experimental: Extended Data Fig. 3 Related to Figure 2. Characterization of the oligomeric state of SP9. a, Size exclusion chromatography (SEC) profiles of peptides. […] The dashed line indicates the border of the void volume at ~8 ml. […] Scale bar, 410 μm. c, Representative time traces showing single-molecule stepwise photobleaching events of SP9-Cy3. Black lines correspond to the fluorescence intensity of SP9-Cy3 and red lines correspond to the idealized trajectory obtained by Hidden Markov Model analysis (HMM) (Methods). d, Distribution of multiple SP9-Cy3 molecules in (diffraction limited) fluorescent spots at specified concentrations. Fluorescent spots were automatically selected by smCamera. The number of SP9-Cy3 molecules per fluorescent spot was determined from the observed fluorescence intensity time traces by HMM and verified by manual inspection (Methods). Bar graphs were calculated from 167, 675, 937, and 520 selected traces at concentrations of 0.5, 1, 10, and 100 nM SP9-Cy3, respectively. Source data

## CC[C@H](C)[C@H](NC(=O)[C@]1(C)CCCC=CCCC[C@](C)(NC(=O)[C@H](CCC(=O)O)NC(=O)[C@H](CCC(=O)O)NC(C)=O)C(=O)N[C@@H](CCCCN)C(=O)N[C@@H](CC(=O)O)C(=O)N[C@@H](C)C(=O)N1)C(=O)N[C@@H](CCCNC(=N)N)C(=O)N[C@@]1(C)CCCC=CCCC[C@@](C)(C(=O)N[C@@H](CC(=O)O)C(=O)N[C@@H](CCC(=O)O)C(=O)N[C@@H](CCC(N)=O)C(=O)N[C@@H](CS)C(N)=O)NC(=O)[C@H](CCSC)NC(=O)[C@H](C(C)C)NC(=O)[C@H](CC(C)C)NC1=O [SP9] (Ac-EE[S5]KDA[S5]IR[S5]LVM[S5]DEQC-NH2; staple 3-7, 10-14)
  aggregation by size-exclusion chromatography: does not aggregate
